The values that follow come from patent US9629921B2, “Smart pro-drugs of serine protease inhibitors” (Trustees of Tufts College, priority 2002, dated 2017).

By UniProt entry, the sequences of proteins in these tests, tags left out.
UniProt P27487, whole entry, species assumed: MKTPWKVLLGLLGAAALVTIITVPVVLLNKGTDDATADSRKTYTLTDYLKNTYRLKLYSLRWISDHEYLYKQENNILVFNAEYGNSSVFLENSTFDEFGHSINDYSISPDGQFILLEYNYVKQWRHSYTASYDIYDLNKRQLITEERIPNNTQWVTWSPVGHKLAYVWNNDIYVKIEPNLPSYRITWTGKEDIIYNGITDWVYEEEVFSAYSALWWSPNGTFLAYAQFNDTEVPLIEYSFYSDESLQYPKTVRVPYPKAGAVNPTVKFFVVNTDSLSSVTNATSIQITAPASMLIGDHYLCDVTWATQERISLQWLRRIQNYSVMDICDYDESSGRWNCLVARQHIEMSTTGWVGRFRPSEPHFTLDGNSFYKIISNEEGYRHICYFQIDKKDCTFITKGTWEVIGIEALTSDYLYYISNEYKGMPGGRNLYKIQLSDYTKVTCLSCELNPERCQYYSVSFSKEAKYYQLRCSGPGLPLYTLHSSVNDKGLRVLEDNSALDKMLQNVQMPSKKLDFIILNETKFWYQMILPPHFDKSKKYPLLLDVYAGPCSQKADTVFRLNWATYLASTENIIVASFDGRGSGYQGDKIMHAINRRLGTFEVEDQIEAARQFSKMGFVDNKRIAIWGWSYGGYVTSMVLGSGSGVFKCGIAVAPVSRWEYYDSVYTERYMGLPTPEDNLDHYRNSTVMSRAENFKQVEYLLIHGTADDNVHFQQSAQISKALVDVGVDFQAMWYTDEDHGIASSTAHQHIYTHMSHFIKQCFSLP

In the assay the target is DPP IV (Homo sapiens, UniProt P27487). Put plainly: In vitro DPP IV enzyme inhibition assay; inhibitors incubated at pH 2 or pH 8, then added to enzyme assay solution at pH 8.0. It is filed as biochemical. As to conditions: pre-incubated at low pH vs high pH (FIG. 3, FIG. 64, Table 1). On the procedure:
Inhibitors were incubated overnight in pH 2 or pH 8 solutions and then added directly to an enzyme assay solution at pH 8.0.
It is important to note that the x-axis in FIG. 3 refers to the concentration of the SPI, not the concentration of the released Xaa-boroPro.

Turning to `CC(C)[C@H](N)C(=O)N1CCC[C@H]1B(O)O` [Val-boroPro], the “pH dependence of DPP IV inhibition” value is on record as “more effective as inhibitors of DPP IV when pre-incubated at low pH than at high pH”.
